# Earlier results as cited in patent publication US20120035103A1, “METHOD FOR ADMINISTRATION OF INSULIN AND PHARMACEUTICAL COMPOSITION THEREOF” (priority 2010, published 2012).
# Details: pulmonary route, without absorption-enhancing agent
substance,measurement,value
insulin,Bioavailability of the insulin administered,approximately 10%
